Text: Some of these tests will appear in the examples as comparatives.

gentiobiose
effect of the substance, mixed with or solubilised in water, on oxaliplatinum solubility: allow to dissolve, at least a part of the oxaliplatinum

— patent US7070796B1 (Debiopharm S.A., priority 1999, dated 2006)
